{"source": "patent EP0496162A2", "about": "“Peptide inhibitors of RAS-GAP interaction” (MERCK & CO. INC., priority 1990, dated 1992)", "type": "physicochemical", "procedure": "Ras peptides were dissolved in either 100% dimethyl formamide (DMF, American Burdick and Jackson) or 100% dimethyl sulfoxide (DMSO, Fluka UV-spectroscopy grade) at a calculated peptide concentration of 1-4 mM. Following 1 minute in a Sonicor SC-200 bath sonicator at room temperature, the peptide solutions were vortexed, and then centrifuged for 5 minutes at room temperature in an Eppendorf microfuge to remove any undissolved material. 20 µL of the cleared peptide solutions were then added to 80 µL of Buffer D in a dilution series covering a range of peptide concentrations from 0.02 µM up to the maximum solubility limit for each peptide. In each dilution, the solvent concentration was maintained at 20%. […] Reactions were initiated upon addition of 5 µL of diluted GAP (10 fmol), and analyzed as described above.\nThe other portion of the cleared peptide solution was measured spectrophotometrically to determine solubility and concentration of the peptides. Extinction coefficients were determined by measuring the absorbance at 277 nm of 2 peptides whose exact concentrations were quantitated by amino acid analysis. […] In addition, peptide solubility was confirmed by comparing the light scattering at 600 nm for each peptide solution measured before and after centrifugation. […]", "data": [{"molecule": "CC[C@H](C)[C@H](NC(=O)[C@H](CC(C)C)NC(=O)[C@H](CCC(N)=O)NC(=O)[C@@H](NC(=O)[C@@H](NC(=O)[C@H](CC(C)C)NC(=O)[C@H](CCCNC(=N)N)NC(=O)[C@@H](N)CCCNC(=N)N)[C@@H](C)O)[C@@H](C)CC)C(=O)N[C@@H](CCC(N)=O)C(=O)N[C@@H](CC(N)=O)C(=O)N[C@@H](Cc1c[nH]cn1)C(=O)N[C@@H](Cc1ccccc1)C(=O)N[C@H](C(=O)N[C@@H](CC(=O)O)C(=O)N[C@@H](CCC(=O)O)C(=O)N[C@@H](Cc1ccc(O)cc1)C(=O)N[C@@H](CC(=O)O)C(N)=O)C(C)C", "note": "[Ras 19-33(1)]", "values": [{"measurement": "Maximum Solubility", "value": 4, "unit": "mM"}]}]}
